Reference: patent US20250017895A1, “FLAVANOID CONTAINING COMPOSITIONS AND METHODS OF USE THEREOF FOR THE TREATMENT OF MITOCHONDRIAL DISORDERS” (priority 2021, published 2025)

What was measured:
Type in all cases: in vivo
[1] = test system: gas-1(fc21) ndufs2−/− complex I disease mutant worms; assay: C. elegans gas-1(fc21) lifespan analysis; details: 20° C., without FUDR
Text: FIG. 2C, the Table below FIGS. 2A and 2B indicates specific values and P values calculated in Graphpad Prism v5.0 for graph shown in FIG. 2B (survival data is shown in days). FIGS. 2D-2F: Comparative analysis of 4-log concentration range of (+) epicatechin (Epi plus), (−) epicatechin (Epi minus), and 11-β-hydroxypregnenolone (11OHP) on lifespan of gas-1(fc21) ndufs2^−/− complex I disease mutant worms.
Neuromuscular activity, and lifespan were quantified in the C. elegans gas-1(fc21) ndufs2^−/− mutants. A semi-automated screening method (Mathew et al, 2016) was used to test drug treatment effects on an integrated C. elegans health endpoint of fecundity, brood size, and behavior.
(−) Epicatechin and (+) Epicatechins act through mimicry of the endogenous mitochondrial steroid 11-β-hydroxypregnenolone (11-OHP), a potent inducer of mitochondrial biogenesis. C. elegans nematode strains studied included wild-type (N2 Bristol) and gas-1(fc21) mutants. […] FIGS. 2D, 2E and 2F are graphs show a side-by-side comparison of (+)-epicatechin, (−)-epicatechin and 11-0HP on gas-1(fc-21) worm survival.

[2] = test system: Pdss2kd/kd homozygous missense mutant mice; assay: Liver mitochondrial content (VDAC western blot, citrate synthase activity) in Pdss2kd/kd mice; details: 5 or 10 μg/mL in drinking water; approximately 2 months
[3] = test system: Pdss2kd/kd homozygous missense mutant mice; assay: Polarography of permeabilized skeletal muscle of Pdss2kd/kd mice (Oxygraph 2K); details: 5 to 10 μg/ml in drinking water, two months, compared to wild-type (B6)
Protocol: FIGS. 15A-15B: (+) Epicatechin treatment (5 to 10 μg/ml fed in drinking water) of Pdss2^kd/kd homozygous missense mutant mice, which have neuromuscular dysfunction, Parkinsonism, and renal glomerular disease due to impaired Coenzyme Q biosynthesis, normalized their reduced complex I-dependent and complex I+II integrated respiratory chain oxidative phosphorylation capacity as compared to wild-type (B6) controls. Pdss2^kd/kd mice were already grossly ill with renal disease as evidenced by frank albuminuria at the time (+) Epicatechin treatment was begun at 90-115 days of life, with daily refreshing of their treatment for two months prior to sacrifice and tissue analysis. Polarography was performed by Oxygraph 2K (Oroboros Instruments) in freshly isolated permeabilized skeletal muscle to evaluate mitochondrial complex I (malate+ADP) integrated oxphos capacity (FIG. 15A) and integrated mitochondrial complexes I+II (malate+succinate+ADP) oxphos capacity (FIG. 15B). N conveys number of animals studied per condition, split to display sex-related effects.
Further analysis of integrated mitochondrial respiratory chain capacity was performed by polarography in freshly isolated skeletal muscle using a permeabilized tissue protocol with malate as the complex I substrate, and malate+succinate as the complex I+II substrates, together with high ADP per standard protocol (Oxygraph 2k, Oroboros Instruments). N=2-6 animals/condition, as detailed. B6 control animals were sacrificed between 127 and 137 days of life. Pdss2^kd/kd mice were fed (+) Epicatechin ad libitum from approximately 90-120 days of life (when symptoms of renal glomerular disease were already present based on frank albuminuria) until sacrifice at approximately 150-190 days of life. […] A consistent trend was seen of increased mitochondrial complex I and complex I oxphos capacity as well as increased mitochondrial complex I+II oxphos capacity with 5 μg/mL to 10 μg/mL (+) epicatechin oral treatment in their drinking water for 2 months after the onset of renal disease.

Oc1cc(O)c2c(c1)O[C@@H](c1ccc(O)c(O)c1)[C@@H](O)C2 [(+) epicatechin]
short lifespan of gas-1(fc21) worms relative to wild-type ([1]; 1 nM): significant but somewhat lesser degree | short lifespan of gas-1(fc21) worms relative to wild-type ([1]; 10 nM): significantly rescued | short lifespan of gas-1(fc21) worms relative to wild-type ([1]; 100 nM): significant but somewhat lesser degree | VDAC (porin) protein expression in liver relative to untreated mutant controls [2]: Significant increase | complex I+II (malate+succinate+ADP) integrated oxphos capacity in skeletal muscle [3]: increased | complex I-dependent (malate+ADP) integrated oxphos capacity in skeletal muscle [3]: increased | complex I+II (malate+succinate+ADP) integrated oxphos capacity in skeletal muscle ([3]; listed as (+) Epicatechin): normalized | complex I-dependent (malate+ADP) integrated oxphos capacity in skeletal muscle ([3]; listed as (+) Epicatechin): normalized
